Experimental data taken from paper PMC6712002, “Comprehensive in vitro characterization of PD-L1 small molecule inhibitors” (Scientific Reports, 2019).
Bridge positions count the residues as written; N and C are the ends. Square brackets hold non-standard residues; d marks the D form. Peptide text beside a SMILES is read from it. NMeNle = CCCC[C@H](NC)C(=O)O; NMeA = CN[C@@H](C)C(=O)O

Chains of the proteins cited; added tags and fusions are not shown. Residues count along the entry.
UniProt Q9NZQ7, 18-134: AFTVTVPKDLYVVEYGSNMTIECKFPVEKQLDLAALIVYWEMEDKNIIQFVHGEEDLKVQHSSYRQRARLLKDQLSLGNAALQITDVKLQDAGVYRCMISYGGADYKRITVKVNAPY

Columns and labels:
Fc-B7-1 = target: T1, Fc-B7-1 (Homo sapiens, UniProt P33681); experiment: SPR binding to captured Fc-B7-1 (specificity)
T1 sequence (P33681 35-242 limits assumed): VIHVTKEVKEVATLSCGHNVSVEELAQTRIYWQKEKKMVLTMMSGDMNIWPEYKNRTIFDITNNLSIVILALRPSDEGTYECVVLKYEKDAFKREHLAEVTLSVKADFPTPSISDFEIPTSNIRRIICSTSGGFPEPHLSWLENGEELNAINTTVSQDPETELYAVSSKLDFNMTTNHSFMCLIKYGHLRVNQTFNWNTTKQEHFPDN

Fc-PD-L1 = Fc-PD-L1 (Homo sapiens, UniProt Q9NZQ7); experiment: SPR binding to captured Fc-PD-L1; details: Fc-PD-L1 captured on Protein A chip, 25 °C
PD-L1 = target: T2, PD-L1 (Homo sapiens, UniProt Q9NZQ7); experiment: Differential scanning fluorimetry (DSF) of PD-L1; type: binding; details: PD-L1 10 µM, compound 50 µM
T2 construct: human PD-L1 (residues 18–134) was cloned into pET21b vector; made in house

[1] = test system: PD-1/NFAT reporter Jurkat cells co-cultured with TCR activator/PD-L1-CHO cells; experiment: Bioluminescent PD-1/PD-L1 cell-based assay (NFAT luciferase reporter)

CCCC[C@H]1C(=O)N(C)[C@@H](CCCC)C(=O)N[C@@H](CCCNC(=N)N)C(=O)N[C@H](C(=O)NCC(N)=O)CSCC(=O)N[C@@H](Cc2ccccc2)C(=O)N(C)[C@@H](C)C(=O)N[C@@H](CC(N)=O)C(=O)N2CCC[C@H]2C(=O)N[C@@H](Cc2c[nH]cn2)C(=O)N[C@@H](CC(C)C)C(=O)N[C@@H](CO)C(=O)N[C@@H](Cc2c[nH]c3ccccc23)C(=O)N[C@@H](CO)C(=O)N[C@@H](Cc2c[nH]c3ccccc23)C(=O)N1C [BMSpep-57] ({CH2CO}-F[NMeA]NPHLSWSW[NMeNle][NMeNle]RCG-NH2; thioether N-14; N-terminus and C-terminus assumed)
binding with captured Fc-B7-1 (Fc-B7-1): None of the BMS inhibitors (BMSpep-57, BMS-103 and BMS-142) showed binding | Rmax (maximum binding response) (Fc-PD-L1): 30.58 ± 6.24 RU | shift of Tm of PD-L1 (PD-L1): 18 ± 0.7 °C | fold NFAT luminescence vs cells only ([1]; 250 nM and 125 nM): ~ 2 fold | fold NFAT luminescence vs cells only ([1]; 1 μM and 500 nM): ~ 3 fold
